This is a selection; strong and weak results do not stand in their true shares. Active and inactive are the calls of the source.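 Rule for the calls: active = inhibition above about 40% at 20 µM (limit read from the data); inactive = the rest.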
Target: Apelin receptor (Homo sapiens) (UniProt P35414)
Test: antagonists of human apelin receptor APJ, primary screen, CHO-K1 cells, beta-arrestin complementation, luminescence (AID 2521);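 note: cells challenged with 10 nM apelin-13 agonist together with compound; plate controls were apelin-13 plus DMSO wells for no effect and DMSO wells lacking apelin-13 for full effect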
Settings: at 20 µM, stronger effect = higher value

Amino acid sequences for entries named in this document (tags omitted).
UniProt P35414, whole entry: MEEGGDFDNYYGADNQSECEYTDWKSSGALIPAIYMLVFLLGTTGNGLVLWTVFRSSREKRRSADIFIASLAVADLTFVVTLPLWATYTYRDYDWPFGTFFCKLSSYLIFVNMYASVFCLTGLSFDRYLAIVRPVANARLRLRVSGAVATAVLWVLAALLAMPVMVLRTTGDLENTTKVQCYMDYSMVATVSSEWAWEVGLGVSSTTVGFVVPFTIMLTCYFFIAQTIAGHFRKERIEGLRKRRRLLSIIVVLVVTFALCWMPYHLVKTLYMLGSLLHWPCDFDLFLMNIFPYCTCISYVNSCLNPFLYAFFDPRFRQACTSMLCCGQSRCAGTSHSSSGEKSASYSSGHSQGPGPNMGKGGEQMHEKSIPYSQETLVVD

**Q.** With CCC(=O)N(c1ccccc1)C1(COC)CCN(CCc2cccs2)CC1 as the molecule, how does the inhibition read?
**A.** Its inhibition is inactive: 18.7%.

**Q.** Which inhibition does the source give for CCC(=O)N(c1ccccc1)C1(COC)CCN(CCn2nnn(CC)c2=O)CC1 here?
**A.** The inhibition was inactive: 6.97%.

From PubChem BioAssay AID2521 (Sanford-Burnham Center for Chemical Genomics, 2010)
